Compound activity as filed in PubChem.
This is a sample that favours compounds with a hit; in the whole collection about 0.43% have one here.
HCMV UL50-53 inh – inhibitors of HCMV UL50-UL53 interaction, biochemical, HTRF; normalized percent inhibition; inhibition, % (concentration not given with the values); 190,000 tested, 0.15% active; AID 1918969, 2023; in the data active means inhibition above about 27%, passing the limit was not always enough
GIV Gai3 FP – inhibitors of GIV peptide binding to Galpha-i3, primary screen, biochemical, fluorescence polarization, FITC-GIV GBA peptide, rat Galphai3 | 90 min; hits give low values; scaled: aluminum fluoride 0%, vehicle 100% | percent of control (FP), % (concentration not given with the values) | 210,000 compounds, 0.42% hits | AID 1224905, 2016;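 active = replicate mean at 85% of control or lower, very high polarization wells dropped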;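 also: wells of about 15 µL received 100 nL stock; the first replicate is given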
GIV-Gai FP conf – inhibitors of GIV peptide binding to Galpha-i3, confirmation, biochemical, fluorescence polarization, FITC-GIV peptide, rat Galphai3; AID 1259350, 2017; stronger effect = lower value; shares compounds with GIV Gai3 FP; fluorescence polarization, mP at 100 µM; 580 tested, 38% active;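 active means inhibition score of 15 or more, meaning 100 minus mean polarization as percent of control over three replicates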
GIV-Gai AS conf – inhibitors of GIV binding to Galpha-i3, confirmation, orthogonal assay for GIV-Galpha-i inhibitor project, biochemical, AlphaScreen, His-GIV, GST-Galphai3. shares compounds with GIV Gai3 FP. purified proteins, 90 min; stronger effect = lower value. AlphaScreen counts at 100 µM. 580 tested, 39% active. AID 1259351, 2017;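 active means inhibition score at or above a set limit, where the score is 100 minus the three-replicate mean percent of control signal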
An asterisk follows results filed as active; i = inactive; / = no result given.

#	Structure	HCMV UL50-53 inh	GIV Gai3 FP
1	CCCn1cc(S(=O)(=O)c2ccc(CC)cc2)c(=O)c2cc(F)c(N3CCN(C)CC3)cc21	/	110
2	CCCn1cc(S(=O)(=O)c2ccc(OC)cc2)c(=O)c2cc(F)c(N3CCN(C)CC3)cc21	-12	68*
3	CN1C(=O)Cc2ccccc21	-3	101
4	CN1C(=O)Cc2ccccc2C1=O	67*	80*
5	CN(C)c1ncc(C(=O)O)cc1NS(=O)(=O)c1ccccc1	-38	49*
6	CCCCN(C)c1ncc(C(=O)O)cc1NS(=O)(=O)c1cc(F)ccc1F	-46	112
7	CCN(CCN(C)C)c1ncc(C(=O)O)cc1NS(=O)(=O)c1ccc(F)c(F)c1	-13	61*
8	CCN(CC)c1ncc(C(=O)O)cc1NS(=O)(=O)c1c(C)cc(C)cc1C	-21	81*
9	CC(C)c1ccc(S(=O)(=O)Nc2cc(C(=O)O)ccc2N(C)C)cc1	11	103
10	CCN(CCN(C)C)c1ncc(C(=O)O)cc1NS(=O)(=O)c1ccc(C(C)C)cc1	-18	60*

#	GIV-Gai FP conf	GIV-Gai AS conf
1	/	/
2	71	35545
3	/	/
4	59*	17985*
5	36*	8377*
6	/	/
7	36*	38193
8	71	22183
9	/	/
10	41*	35632

New compounds follow.
#	Structure	HCMV UL50-53 inh	GIV Gai3 FP
11	Cc1cc(C)cc(S(=O)(=O)Nc2cc(C(=O)O)cnc2N(CC(C)C)CC(C)C)c1	-34	117
12	CN1CCN(c2ccc(C(=O)O)cc2NS(=O)(=O)c2ccccc2)CC1	-9	112
13	N#CCCn1nc(-c2ccccc2)cc1C(=O)N/N=C/c1ccncc1	-8	/
14	Cc1ccc(-c2noc(CCC(=O)NC3CCCC3)n2)c(=O)[nH]1	-34	103
15	O=C(O)CC(c1ccc(Br)cc1)n1cccc1 (configuration not stated)	5	/
16	COc1cccc(C(c2nnnn2CCC(C)C)N2CCN(Cc3ccccc3)CC2)c1OC (configuration not stated)	3	107
17	CCN(CC)c1ncc(NS(=O)(=O)c2cc(C)c(C)cc2C)cc1C(=O)O	-40	107
18	CCN(CCN(C)C)c1ncc(NS(=O)(=O)c2cc(C)c(C)cc2C)cc1C(=O)O	-42	58*
19	CC(C)Nc1nc(N2CCN(C3CCCCC3)CC2)nc2c1cnn2C	-8	104
20	O=C(O)C1CC(=O)N(Cc2ccc(F)cc2)C1 (configuration not stated)	/	99

#	GIV-Gai FP conf	GIV-Gai AS conf
11	/	/
12	/	/
13	/	/
14	/	/
15	/	/
16	/	/
17	/	/
18	43*	27195
19	/	/
20	/	/

2 of these compounds in another layout.
14: Cc1ccc(-c2noc(CCC(=O)NC3CCCC3)n2)c(=O)[nH]1
  HCMV UL50-53 inh = -34; GIV Gai3 FP = 103; GIV-Gai FP conf = /; GIV-Gai AS conf = /

11: Cc1cc(C)cc(S(=O)(=O)Nc2cc(C(=O)O)cnc2N(CC(C)C)CC(C)C)c1
  HCMV UL50-53 inh = -34; GIV Gai3 FP = 117; GIV-Gai FP conf = /; GIV-Gai AS conf = /

The list goes on.
#	Structure	HCMV UL50-53 inh	GIV Gai3 FP
21	O=C(O)C1CC(=O)N(Cc2ccc3c(c2)OCO3)C1 (configuration not stated)	30	51*
22	Nc1ccc(-c2ccnc(-c3ccc(N)cc3)n2)cc1	/	110
23	CC(=O)[C@@H]1[C@H]2C3COC(O3)C(=O)[C@@H]2[C@H]2C=Cc3ccccc3N21 (some centres not stated)	/	80*
24	CC(C)(C)C(=O)C1C2C3COC(O3)C(=O)C2C2C=Cc3ccccc3N21 (configuration not stated)	i	100
25	COc1ccc(-c2c(C#N)c(N)n3c(nc4ccccc43)c2C#N)cc1OC	-8	83*
26	COc1ccc(-c2c(C#N)c(N)n3c(nc4ccccc43)c2C#N)cc1O	/	105
27	Cc1cccc(NC(=O)NC(C)c2c(-n3cccc3)sc(C)c2C)c1C (configuration not stated)	/	89
28	Cc1ccc(NC(=O)NC(C)c2c(-n3cccc3)sc(C)c2C)cc1F (configuration not stated)	-29	103
29	Cc1ccc2c(c1)N(CC(=O)c1ccc(F)cc1)C=NS2(=O)=O	-24	99
30	CC(C)Oc1ccc(-c2noc(CN3C(=O)COc4cc(C(C)(C)C)ccc43)n2)cc1	-22	102

#	GIV-Gai FP conf	GIV-Gai AS conf
21	18*	1816*
22	/	/
23	51*	7239*
24	/	/
25	63	61581
26	/	/
27	71	49525
28	/	/
29	/	/
30	/	/

Following part:
#	Structure	HCMV UL50-53 inh	GIV Gai3 FP
31	Cc1[nH]n(-c2ccccc2)c(=O)c1C(c1cccc(O)c1)c1c(C)[nH]n(-c2ccccc2)c1=O	/	66*
32	COc1cc(C(c2c(C)[nH]n(-c3ccccc3)c2=O)c2c(C)[nH]n(-c3ccccc3)c2=O)ccc1O	/	120
33	CCCCCCCOc1ccc(C(c2c(C)[nH]n(-c3ccccc3)c2=O)c2c(C)[nH]n(-c3ccccc3)c2=O)cc1	/	82*
34	Cc1[nH]n(-c2ccccc2)c(=O)c1C(c1cccc([N+](=O)[O-])c1)c1c(C)[nH]n(-c2ccccc2)c1=O	/	103
35	Cc1[nH]n(-c2ccccc2)c(=O)c1C(c1ccc(N(C)C)cc1)c1c(C)[nH]n(-c2ccccc2)c1=O	/	104
36	Cc1[nH]n(-c2ccccc2)c(=O)c1C(c1cccc(Br)c1)c1c(C)[nH]n(-c2ccccc2)c1=O	/	74*
37	Cc1[nH]n(-c2ccccc2)c(=O)c1C(c1ccc(OCc2ccccc2Cl)cc1)c1c(C)[nH]n(-c2ccccc2)c1=O	/	107
38	Cc1[nH]n(-c2ccccc2)c(=O)c1C(c1ccccc1)c1c(C)[nH]n(-c2ccccc2)c1=O	/	77*
39	O=C(COC(=O)Cn1cnc2ccccc21)NCC1CCCO1 (configuration not stated)	-28	/
40	CC[n+]1c(/C=C2\C=C(C)CC(C)(C)C2)oc2ccccc21	/	103

#	GIV-Gai FP conf	GIV-Gai AS conf
31	51*	11539*
32	/	/
33	73	41609
34	/	/
35	/	/
36	68	23480*
37	/	/
38	63	18252*
39	/	/
40	/	/

(continued)
#	Structure	HCMV UL50-53 inh	GIV Gai3 FP
41	COc1ccccc1C(c1c(C)[nH]n(-c2ccccc2)c1=O)c1c(C)[nH]n(-c2ccccc2)c1=O	/	74*
42	CCOc1ccccc1C(c1c(C)[nH]n(-c2ccccc2)c1=O)c1c(C)[nH]n(-c2ccccc2)c1=O	/	113
43	O=C1OC(Oc2cccc3cccnc23)(c2ccccc2)c2ccccc21 (configuration not stated)	/	99
44	Cc1cc(C)cc(NC(=O)NCCCn2c(-c3ccncc3)nc3cccnc32)c1	7	109
45	CC(C)Oc1ccc(-c2noc(CCn3nc(-c4ccc5c(c4)OCO5)ccc3=O)n2)cc1	/	101
46	COC(=O)c1ccc(N=Cc2nc(-c3cc(OC)c(OC)c(OC)c3)oc2O)cc1	/	95
47	COc1cc(-c2nc(C=Nc3ccc4ccccc4c3)c(O)o2)cc(OC)c1OC	/	104
48	CSc1ccc(CN2C(=O)CCC2(C)C(=O)N2CCCC2)cc1 (configuration not stated)	-14	108
49	COc1ccc(C(=O)N2CCN(C(=O)c3ccc4sc(N)nc4c3)CC2)cc1	47	/
50	CN1C(=O)/C(=C/c2cn(CC(=O)N3CCCC3)c3ccccc23)C(=O)NC1=S	-5	95

#	GIV-Gai FP conf	GIV-Gai AS conf
41	66	42679
42	/	/
43	/	/
44	/	/
45	/	/
46	58	54563
47	/	/
48	/	/
49	/	/
50	/	/

More records.
#	Structure	HCMV UL50-53 inh	GIV Gai3 FP
51	CCOc1cccc(N2C(=O)/C(=C/c3cn(CC(=O)N4CCOCC4)c4ccccc34)C(=O)NC2=S)c1	-3	82*
52	COc1ccc(/C=C2/SC(=S)N(CCC(=O)Nc3c(C)n(C)n(-c4ccccc4)c3=O)C2=O)cc1	-15	57*
53	COc1ccc(/C=C2\SC(=O)N(CCC(=O)Nc3c(C)n(C)n(-c4ccccc4)c3=O)C2=O)cc1	-7	106
54	O=C1C2C3C=CC(C2C(=O)N1c1ccccn1)C1C2C(=O)N(c4ccccn4)C(=O)C2C31 (configuration not stated)	-5	97

#	GIV-Gai FP conf	GIV-Gai AS conf
51	62	45192
52	75	43904
53	/	/
54	/	/
